Source: paper PMC8021898 (Frontiers in Pharmacology, 2021)

System: human H1, H2, H3, and H4 receptors
Settings: over the range of clinical steady state famotidine drug levels

Structure (SMILES): NC(N)=Nc1nc(CSCCC(N)=NS(N)(=O)=O)cs1 [Famotidine]
- specificity among histamine receptors: specific for H2
